Results published in patent US20040048790A1 (published 2004).

Experiments:
Test in all cases: 125I-probe peptide inhibition, purified HLA
HLA-B*3501 = HLA-B*3501 (human)
HLA-B*5301 = HLA-B*5301 (human)
HLA-B*5101 = HLA-B*5101 (human)
HLA-A*6801 = HLA-A*6801 (human)
HLA-B*0702 = HLA-B*0702 (human)

IC50 (HLA-B*3501): 257 nM
Binder: FPAAPTPAAPA [p53.76.F1 (11-mer)]

IC50 (HLA-B*3501): 3430 nM | IC50 (HLA-B*5301): 715 nM
Binder: FPTPAAPAPI [p53.79.F1]

IC50 (HLA-B*5101): 204 nM
Binder: FPAPSWPL [p53.86.F1]

IC50 (HLA-A*6801): 3810 nM
Binder: VVRRBPHHEK (B at position 5 = alpha-amino butyric acid (in place of Cys)) [p53.172.B5K10]

IC50 (HLA-B*3501): 655 nM
Binder: FPAAPTPI [p53.76.F118]

IC50 (HLA-B*3501): 5140 nM
Binder: FPTPAAPI [p53.79.F118]

IC50 (HLA-B*0702): 275 nM
Binder: FPPVAPAPI [p53.70.F119]

IC50 (HLA-B*5301): 5170 nM
Binder: FPAPAAPTPA [p53.74.F1 (10-mer)]

IC50 (HLA-B*3501): 277 nM
Binder: FPAPAAPTPI [p53.74.F1110]

IC50 (HLA-B*3501): 5540 nM
Binder: FPRMPEAAPPI [p53.63.F1111]

IC50 (HLA-B*5101): 1060 nM
Binder: FPAPAPSWPL [p53.84.F1]

IC50 (HLA-B*5301): 2910 nM
Binder: FPPVAPAPAI [p53.70.F1110]

One block for each binder: values may come before it.
